scFv variants of Ab-95 (light chain) against a SARS-CoV-2 spike peptide

Data: MIT Lincoln Laboratory AlphaSeq set, Engelhart et al. 2022, doi:10.1038/s41597-022-01779-4, as distributed in FLAb.

Binding partner: SARS-CoV-2 spike HR2 peptide, sequence PDVDLGDISGINAS.

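Phage display of a naive human antibody library on the peptide gave the parent. AAYL52 was designed without a model: most single CDR substitutions and a random sample of double and triple ones. AlphaSeq pools MATa yeast showing the antibodies with MATalpha yeast showing the peptide. Binding brings cells together so that they mate, and sequencing counts the barcode pairs among the diploids. Scores were corrected for input abundance and mapped to Kd with protein pairs of known affinity run in the same pool. Mating was done three times.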

Parent: Ab-95, a human scFv built as VH, the linker GGGGSGGGGSGGGGS, VL. Only the CDRs of the light chain vary.
VH: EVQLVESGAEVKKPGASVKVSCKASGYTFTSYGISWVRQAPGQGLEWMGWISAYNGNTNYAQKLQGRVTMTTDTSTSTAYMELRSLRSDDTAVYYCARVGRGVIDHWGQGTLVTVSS
VL: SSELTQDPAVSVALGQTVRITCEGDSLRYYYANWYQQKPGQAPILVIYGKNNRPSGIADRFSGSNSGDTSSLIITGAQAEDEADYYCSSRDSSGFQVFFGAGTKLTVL

Variants are written as CDR1, CDR2 and CDR3 of the light chain (limits as in the source). Parent: EGDSLRYYYAN, GKNNRPS, SSRDSSGFQVF. Every variant below is changed at N33 of the VL (sequential numbering). The Kd shown is the geometric mean over detected replicates; a lower Kd is a better binder. "not detected" marks a missing value. The strain was present, yet no cells mated with the target were sequenced in any replicate, which points to weak or no binding. Entries are sorted by rising average, undetected variants last. Nonspecific signal, from three strains lacking the peptide, appeared in 28% of pairings of library AAYL52, centred on 8.2 µM (5% of these signals below 800 nM); values are not corrected for it.

CDR-L1,CDR-L2,CDR-L3,apparent Kd,detected
EGDSLRYYEAQ,GKNNRPS,ASRDSSGFQVF,35 nM,3/3
EGDSLRYYYAD,GKNNRPS,SSRDNSGFCVF,120 nM,3/3
EGDSLRYYDAR,GYNNRPS,SSRDSSGFQVF,130 nM,3/3
EGDSLRYYYAW,GMNNRPS,SCRDSSGFQVF,330 nM,2/3
EGDSLRYYYAV,GKNNRPD,SSRDSSGFQVF,360 nM,3/3
EGDSLRYYYAE,GKNNRPS,SSRDSSQFQVF,620 nM,1/3
EGDFLRYYYAV,GKNNIPS,SSRDSSGFQVF,920 nM,1/3
EGDSLRYYYAD,GKNNRPS,SSRDKHGFQVF,1.1 µM,3/3
EGDSLRYYYAA,GKNNRGS,SSRDSSGGQVF,1.3 µM,1/3
EGDSLRYYEAR,GKNHRPS,SSRDSSGFQVF,1.3 µM,3/3
EGDSLPYYYAG,GKNNTPS,SSRDSSGFQVF,2.0 µM,3/3
EGDALRYYYAD,GKNNRPS,SSRDSSGGQVF,2.1 µM,1/3
EGDSLRYYYAD,GENNRPS,SSRDSSGFQVF,2.8 µM,3/3
EGDSLRYYYIF,GKNNRPN,SSRDSSGFQVF,3.2 µM,3/3
EGDSLRYYYAT,GKSNRPS,SSRDSSGFYVF,4.3 µM,1/3
EGASLRYYYAQ,GKANRPS,SSRDSSGFQVF,4.3 µM,2/3
EGDSLRYYYAQ,GKNNRPS,SSRDSSGFQVV,5.8 µM,1/3
EGDSLRYYYAE,GKNNRPS,SSRDASGFQVF,6.4 µM,1/3
EGDILRYYYAG,GKNNRPS,SSRDSFGFQVF,6.7 µM,1/3
EGDSQRYYYAK,QKNNRPS,SSRDSSGFQVF,7.3 µM,1/3
EGDSLRGYAAW,GKNNRPS,SSRDSSGFQVF,7.5 µM,1/3
EGDSLRYYGAI,GKNNRWS,SSRDSSGFQVF,8.0 µM,2/3
EYDSLRYYYAS,GKNNRPS,SSRDSSGFQNF,8.1 µM,2/3
EGDSLRFYYAC,GKNNRPS,SSRDSSNFQVF,12 µM,2/3
EGDSLRYYYAI,GKNNRPS,SERDSIGFQVF,12 µM,2/3
EGDSLMYYYAP,GKNNRPS,SSLDSSGFQVF,13 µM,2/3
EGDSLFYYYAA,GKNNRPS,SSRDSSGFQVF,14 µM,1/3
EGDSLRYYCAE,GKNNRPS,SSRDQSGFQVF,17 µM,1/3
TGDSLRYYYAR,GKNNRPS,SSFDSSGFQVF,17 µM,3/3
EGDSLRYYYAY,GKNNRPS,SSTDSSGFQVF,18 µM,2/3
EGDSLRYYNAW,WKNNRPS,SSRDSSGFQVF,21 µM,1/3
EGDSMRNYYAL,GKNNRPS,SSRDSSGFQVF,25 µM,2/3
EGDSIRYYYAI,GKNNRPS,SSRDSSGFLVF,32 µM,1/3
EGDSLRYYYAR,GCNNRPS,SSRDSSGFQVF,57 µM,2/3
EGDSLRYYYAK,GVNVRPS,SSRDSSGFQVF,73 µM,2/3
EGDSLRYYQAP,GKNNAPS,SSRDSSGFQVF,160 µM,2/3
ENDSLRRYYAQ,GKNNRPS,SSRDSSGFQVF,190 µM,1/3
EGDSLLYYYAT,GKNNRPS,SSRDFSGFQVF,360 µM,1/3
EGDSGRYYYAQ,GKNNRPS,SSRDSSGFQVM,not detected,0/3
EGDSLRYYYAR,GKNNRPS,SSRPSTGFQVF,not detected,0/3
EGDSLRYYYAD,GKNNRPQ,SSVDSSGFQVF,not detected,0/3
MGDLLRYYYAL,GKNNRPS,SSRDSSGFQVF,not detected,0/3
EGDSLRYYYAW,GKNNRPS,SSRYSSIFQVF,not detected,0/3
EGDSLRYYYAP,GKNNRPS,SGRDSSGFQNF,not detected,0/3
EGDSFRYYYAV,GKNNRPS,SSNDSSGFQVF,not detected,0/3
EGDSLRYYYAC,GKVNRPS,SSRDSSGFQAF,not detected,0/3
EGDSLCYYYAT,GKNNRPS,SSRDSSGFYVF,not detected,0/3
ESDSLRYYYAV,GKNNRPS,SSRDSSGFQVK,not detected,0/3
EGDSLMYYYAI,GWNNRPS,SSRDSSGFQVF,not detected,0/3
EGDSSRYYYAG,GKNNRPS,SSRDSSGFQVI,not detected,0/3
EGDSLRYYYAM,GKNNRPS,SSWDSSGFQVF,not detected,0/3
EGDALRYYYAC,GKNNRPS,SSRDSSGFQQF,not detected,0/3

A selection of 8 entries from above:

| CDR-L1 | CDR-L2 | CDR-L3 | apparent Kd | detected |
|---|---|---|---|---|
| EGDALRYYYAD | GKNNRPS | SSRDSSGGQVF | 2.1 µM | 1/3 |
| EGDSLRYYEAR | GKNHRPS | SSRDSSGFQVF | 1.3 µM | 3/3 |
| EGDSSRYYYAG | GKNNRPS | SSRDSSGFQVI | not detected | 0/3 |
| EGDALRYYYAC | GKNNRPS | SSRDSSGFQQF | not detected | 0/3 |
| EGDFLRYYYAV | GKNNIPS | SSRDSSGFQVF | 920 nM | 1/3 |
| MGDLLRYYYAL | GKNNRPS | SSRDSSGFQVF | not detected | 0/3 |
| EGDSLRFYYAC | GKNNRPS | SSRDSSNFQVF | 12 µM | 2/3 |
| EGDSLMYYYAP | GKNNRPS | SSLDSSGFQVF | 13 µM | 2/3 |